Measured affinities in a library of Ab-14 heavy chain variants

From the AlphaSeq antibody data of Engelhart et al. 2022 (doi:10.1038/s41597-022-01779-4), copy in the FLAb collection.

Antigen: PDVDLGDISGINAS, a 14-residue peptide of the SARS-CoV-2 spike HR2 region.

Each scFv is VH, a (GGGGS)3 linker, VL, as in the parent Ab-14, and differs from it in the CDRs of the heavy chain only.
VH: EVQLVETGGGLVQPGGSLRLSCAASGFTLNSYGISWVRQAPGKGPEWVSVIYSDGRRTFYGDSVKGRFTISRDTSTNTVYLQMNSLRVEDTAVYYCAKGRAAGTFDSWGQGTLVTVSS
VL: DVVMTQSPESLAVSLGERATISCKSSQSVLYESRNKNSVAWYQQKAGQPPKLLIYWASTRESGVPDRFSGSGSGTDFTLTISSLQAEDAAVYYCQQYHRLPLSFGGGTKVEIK

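Variants in AAYL49 differ from the parent at up to three CDR positions; double and triple changes were sampled at random. In AlphaSeq, yeast of one mating type display the scFv and yeast of the other type display the target. After mating in shaken culture at 30 °C for 16 h, diploids were selected and their barcode pairs sequenced. A regression on co-assayed BCL2-family reference pairs converts the normalised counts of each replicate to an apparent Kd. There are three technical replicates.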

Each variant is given by its three heavy chain CDRs, as the data file delimits them; those of the parent are GFTLNSYGIS, VIYSDGRRTFYGDSVK, GRAAGTFDS.
Affinities are written as log10 Kd with Kd in nM; a lower number is a better binder.
"n.d." means that the variant was in the library but no mating with the target was seen in that replicate; the authors take this as a sign of poor binding, and no number exists.
Three control strains display no target. For library AAYL49, 15% of the pairings with them gave a signal, with a median of 4.06 and one signal in twenty below 2.83, so weak values seen in few replicates may be background. The control count says in how many pairings with the empty strains this scFv gave a signal, with their mean in brackets.

CDR-H1,CDR-H2,CDR-H3,log10 Kd (nM) by replicate,signal with controls
GFTLNSYAIS,VIYSDGRRTFYGTSRK,GRAAGTFDS,n.d. n.d. n.d.,0/9
GFTLNSYGIS,VIYSDGRVTFYGDSVK,GRAATTFDS,n.d. 4.79 5.05,7/9 (4.53)
GFTLNSYGIS,VIYQDGRNTFYGDSVK,GRAAGDFDS,4.44 n.d. n.d.,3/9 (4.35)
GFTLNSYGIS,GIYSDGRVTFYVDSVK,GRAAGTFDS,n.d. n.d. n.d.,0/9
GFTLNSYGWS,RIYSDGRRTFYGDSVK,GRAAGTFDD,n.d. n.d. n.d.,0/9
GFTLNSYGIL,VIYSDGRRTFYGDSEK,GRYAGTFDS,n.d. 4.88 4.85,1/9 (4.41)
GFTLNSYGIS,VIYSDGRRTFYGDPVK,GCEAGTFDS,0.92 1.16 1.09,0/9
GFTLCSYGIS,VIYSDGRRTFYGDSVK,GRAAMTFDR,n.d. n.d. n.d.,0/9
GFTLNPYGIS,IIYSDGRRDFYGDSVK,GRAAGTFDS,n.d. n.d. n.d.,4/9 (4.05)
GFTLNSYGIS,CIESDGRRTFYGNSVK,GRAAGTFDS,n.d. n.d. n.d.,0/9
CFTLNSYPIK,VIYSDGRRTFYGDSVK,GRAAGTFDS,n.d. n.d. 4.52,0/9
GFTLNSYGIS,VIYMDGRRTFWFDSVK,GRAAGTFDS,n.d. n.d. n.d.,0/9
GFTLNSYGIS,VMYSDGRRTFYGDSVK,GRVAATFDS,n.d. 2.60 3.62,0/9
GFTLGSYGIS,VTYSDGRRTEYGDSVK,GRAAGTFDS,n.d. n.d. n.d.,2/9 (3.65)
RFTLNSYGIS,VIYSDGRRTFYGISDK,GRAAGTFDS,n.d. 3.80 5.05,2/9 (5.03)
GFTLNSYCIS,VIYSDGRRTFYGDSVK,GRAAGTFDS,n.d. n.d. n.d.,0/9
GCTLNSYGIS,VIYSDSRRTFYGDSVK,DRAAGTFDS,n.d. n.d. n.d.,1/9 (2.80)
GFTLNSYRIS,VIYSDGRRTFEGDSVK,GRAAGTFDC,n.d. n.d. 4.49,2/9 (4.14)
GFTLNSYAIS,VIYSDGVRLFYGDSVK,GRAAGTFDS,n.d. n.d. n.d.,0/9
GFTLNSYGIS,VIYSDGRRTFYGDSVQ,GCRAGTFDS,1.73 2.32 2.53,2/9 (2.95)
GFTLNSYGIS,VIYSDRRDTFYGLSVK,GRAAGTFDS,n.d. n.d. n.d.,0/9
GFTLNCYGIS,VIYSDGRATFYGDSVK,GRAAGTFDS,n.d. n.d. n.d.,1/9 (3.53)
GFTLNEYGIS,VIYSDGRRTFYGDSVK,GRHAGTFVS,-0.09 0.14 0.19,2/9 (4.32)
GFTLNSYGIW,VIYSIGRKTFYGDSVK,GRAAGTFDS,n.d. n.d. n.d.,0/9
NDTLSSYGIS,VIYSDGRRTFYGDSVK,GRAAGTFDS,2.38 2.17 1.66,3/9 (3.33)
GFTLNSYGIS,VCYSDGRRTFYGDSVK,GRHAGTFRS,n.d. n.d. n.d.,0/9
GFTLNSYGIS,VIPSDGRRTFYTDSVK,GRAGGTFDS,4.94 3.71 6.57,3/9 (5.02)
GFTLNSYGIC,VIYSDGRRTFYGDSPK,GRAAGTFDM,3.63 3.86 n.d.,6/9 (4.39)
GFTLNSYGIF,VIYSDGRRTFYGTSVK,DRAAGTFDS,n.d. n.d. 2.39,0/9
GFTLNSYGIS,SIYSDLRRTFYGDSVK,GRAAGTLDS,n.d. n.d. 4.75,3/9 (4.01)
GFTLNSYGIS,VIYSWGRQTFYGDSWK,GRAAGTFDS,3.50 3.55 5.09,2/9 (4.85)
GFTLNSYGIS,VAYSWGRRTFYGDSVK,GRATGTFDS,n.d. 3.90 3.99,1/9 (3.79)
GFSLNSDGIS,VIYSDGRRTFDGDSVK,GRAAGTFDS,n.d. n.d. n.d.,1/9 (1.48)
GFTLNSYGIS,VIYSDGRRTFYGDSVC,GDAAGFFDS,n.d. 2.39 n.d.,1/9 (3.43)
GFTLNSYGIS,VIYSDGRRTFYGDSVR,GRAAGGFHS,n.d. n.d. n.d.,2/9 (2.96)
GFTLNSKGIS,VIYSDGKRTFYGDFVK,GRAAGTFDS,6.13 3.73 n.d.,3/9 (3.74)
GFTLNSYWIS,VIYSDGPRTFYGDSVI,GRAAGTFDS,n.d. n.d. n.d.,0/9
GFTLNSYGIS,VIYSDGRRNFYGDSVN,LRAAGTFDS,n.d. n.d. n.d.,1/9 (3.25)
GFTLNSYGIS,VIYSDGRCTFYGDSVK,GNAAGTFDS,n.d. 3.73 n.d.,0/9
GFTLNSCGDS,VIYSDGRRTFYGDSTK,GRAAGTFDS,n.d. n.d. 5.24,1/9 (4.15)
GFTLNSYGDS,VIISDGRRTHYGDSVK,GRAAGTFDS,n.d. n.d. 4.89,1/9 (3.98)
GFTLNSYGIP,VIYSDGRRTFYGLSVK,GRAAGCFDS,n.d. n.d. n.d.,0/9
KRTLNMYGIS,VIYSDGRRTFYGDSVK,GRAAGTFDS,n.d. n.d. n.d.,0/9
GFRLNSYRIS,VAYSDGRRTFYGDSVK,GRAAGTFDS,n.d. n.d. 4.41,3/9 (4.11)
GFTLNSMGIS,VIYSDGRRTFYGDSVK,GRAAGTFVS,4.48 n.d. 4.41,4/9 (4.03)
GFTPISYGIS,VIYSDGRRTFYGDSAK,GRAAGTFDS,n.d. n.d. n.d.,0/9
GWTLNSYGIR,VIYSDGRRTFYGDSVK,SRAAGTFDS,n.d. n.d. 4.84,2/9 (3.97)
GFTLNSYGIS,VIYSDGRYTWYGDSVK,GRHAGTFDS,5.23 n.d. 5.15,0/9
GFTVNSYGIS,VIYSDGRRTFYGDDVK,GRAAGTFDS,3.05 2.69 3.09,4/9 (4.98)
GFRLDSYGIS,VIYSDGRRTFYGDSVK,GRAAGTIDS,0.99 1.05 0.94,1/9 (4.48)

The 3 strongest on average among those seen in every replicate, once more:

CDR-H1,CDR-H2,CDR-H3,log10 Kd (nM) by replicate,signal with controls
GFTLNEYGIS,VIYSDGRRTFYGDSVK,GRHAGTFVS,-0.09 0.14 0.19,2/9 (4.32)
GFRLDSYGIS,VIYSDGRRTFYGDSVK,GRAAGTIDS,0.99 1.05 0.94,1/9 (4.48)
GFTLNSYGIS,VIYSDGRRTFYGDPVK,GCEAGTFDS,0.92 1.16 1.09,0/9

Parent in this assay: reference entry 0.65, copy in this library 4.11 (one replicate of three).